Experimental findings from patent US9302989B2 (priority 2010, dated 2016) are described below.

Protein sequences, listed by entry. Tags and fused reporters are not part of them. Lines headed by an entry give the natural chain unless they say otherwise; changes in a name come on top.
UniProt P43490: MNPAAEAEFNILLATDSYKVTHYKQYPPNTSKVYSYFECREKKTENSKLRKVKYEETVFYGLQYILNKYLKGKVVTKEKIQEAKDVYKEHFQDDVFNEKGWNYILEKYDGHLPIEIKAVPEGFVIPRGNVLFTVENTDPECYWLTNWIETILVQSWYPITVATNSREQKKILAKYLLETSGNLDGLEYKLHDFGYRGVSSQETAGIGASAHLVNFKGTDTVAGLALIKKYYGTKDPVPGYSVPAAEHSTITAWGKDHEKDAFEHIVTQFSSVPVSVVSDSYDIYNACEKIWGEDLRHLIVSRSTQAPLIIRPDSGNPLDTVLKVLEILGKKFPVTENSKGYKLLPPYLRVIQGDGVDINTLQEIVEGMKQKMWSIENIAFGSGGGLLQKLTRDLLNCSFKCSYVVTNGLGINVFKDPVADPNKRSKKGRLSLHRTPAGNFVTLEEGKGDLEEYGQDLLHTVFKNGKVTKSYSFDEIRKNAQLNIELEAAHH

In the test the target is NAMPT (Homo sapiens (Human), UniProt P43490). Conditions: read-out: TR-FRET Binding IC50 (μM) probe 1.
In the case of `O=C(Nc1ccc(C(=O)N2CCN(C(=O)c3ccccc3F)CC2)cc1)N1Cc2ccccc2C1` [Example 102, N-(4-{[4-(2-fluorobenzoyl)piperazin-1-yl]carbonyl}phenyl)-1,3-dihydro-2H-isoindole-2-carboxamide], the IC50 amounted to 0.0395 µM.
Regarding `O=C(NCCCc1ccccc1)c1ccc(NC(=O)N2Cc3ccc(F)cc3C2)cc1` [Example 14, 5-fluoro-N-{4-[(3-phenylpropyl)carbamoyl]phenyl}-1,3-dihydro-2H-isoindole-2-carboxamide], the IC50 stood at 0.00888 µM.
As for `O=C(Nc1ccc(C(F)(F)F)cc1)N1Cc2ccccc2C1` [Example 444, N-[4-(trifluoromethyl)phenyl]-1,3-dihydro-2H-isoindole-2-carboxamide], the IC50 is 0.281 µM.
Consider `O=C(CCOc1ccccc1)Nc1ccc(NC(=O)N2Cc3ccccc3C2)cc1` [Example 297, N-{4-[(3-phenoxypropanoyl)amino]phenyl}-1,3-dihydro-2H-isoindole-2-carboxamide], for which the IC50 came to 0.012 µM.
`O=C(Nc1ccc(CO)cc1)c1ccc(NC(=O)N2Cc3ccccc3C2)cc1` [Example 152, N-(4-{[4-(hydroxymethyl)phenyl]carbamoyl}phenyl)-1,3-dihydro-2H-isoindole-2-carboxamide]: the IC50 amounted to 0.0759 µM.
With `CC(C)C(=O)N1CC=C(c2ccc(NC(=O)N3Cc4ccccc4C3)cc2)CC1` [Example 331, N-[4-(1-isobutyryl-1,2,3,6-tetrahydropyridin-4-yl)phenyl]-1,3-dihydro-2H-isoindole-2-carboxamide], the IC50 came out at 0.00611 µM.
Take `O=C(CC1CCCC1)Nc1ccc(NC(=O)N2Cc3ccc(C(=O)O)cc3C2)cc1` [Example 314, 2-({4-[(cyclopentylacetyl)amino]phenyl}carbamoyl)isoindoline-5-carboxylic acid]: the IC50 stood at 0.021 µM.
Consider `O=C(N[C@H](CO)c1ccccc1)c1ccc(NC(=O)N2Cc3ccncc3C2)cc1` [Example 437, N-[4-({[(1S)-2-hydroxy-1-phenylethyl]amino}carbonyl)phenyl]-1,3-dihydro-2H-pyrrolo[3,4-c]pyridine-2-carboxamide], for which the IC50 was determined as 0.008 µM.
Turning to `N#Cc1ccc2c(c1)CN(C(=O)Nc1ccc(C(=O)N3CCN(c4ccccn4)CC3)cc1)C2` [Example 7, 5-cyano-N-(4-{[4-(pyridin-2-yl)piperazin-1-yl]carbonyl}phenyl)-1,3-dihydro-2H-isoindole-2-carboxamide], the IC50 was determined as 0.0046 µM.
`Cn1cc(NC(=O)CCCCCNC(=O)N2Cc3ccccc3C2)cn1` [Example 359, N-{6-[(1-methyl-1H-pyrazol-4-yl)amino]-6-oxohexyl}-1,3-dihydro-2H-isoindole-2-carboxamide]: the IC50 was 0.0881 µM.
With `O=C(Nc1ccc(C(=O)N2CCN(c3ccccn3)CC2)cn1)N1Cc2ccccc2C1` [Example 368, N-(5-{[4-(pyridin-2-yl)piperazin-1-yl]carbonyl}pyridin-2-yl)-1,3-dihydro-2H-isoindole-2-carboxamide], the IC50 turned out to be 0.00373 µM.
Regarding `O=C(NCc1ccc(N2CCCC2=O)cc1)c1ccc(NC(=O)N2Cc3ccccc3C2)cc1` [Example 416, N-(4-{[4-(2-oxopyrrolidin-1-yl)benzyl]carbamoyl}phenyl)-1,3-dihydro-2H-isoindole-2-carboxamide], the IC50 came out at 0.041 µM.
For the compound `COCC(=O)N1CCN(c2ccc(NC(=O)N3Cc4ccccc4C3)cc2)CC1` [Example 507, N-{4-[4-(methoxyacetyl)piperazin-1-yl]phenyl}-1,3-dihydro-2H-isoindole-2-carboxamide], the IC50 came out at 0.186 µM.
In the case of `COc1ccc2c(c1)CN(C(=O)Nc1ccc(C(=O)NCCCc3ccccc3)cc1)C2` [Example 37, 5-methoxy-N-{4-[(3-phenylpropyl)carbamoyl]phenyl}-1,3-dihydro-2H-isoindole-2-carboxamide], the IC50 stood at 0.0161 µM.
To `CC(C)CCNC(=O)c1ccc(NC(=O)N2Cc3cccc(Cl)c3C2)cc1` [Example 67, 4-chloro-N-{4-[(3-methylbutyl)carbamoyl]phenyl}-1,3-dihydro-2H-isoindole-2-carboxamide] belongs 0.0241 µM; to `O=C(Nc1ccc(C(=O)N2CCN(c3ccc(C(F)(F)F)cn3)CC2)cc1)N1Cc2ccccc2C1` [Example 110, N-[4-({4-[5-(trifluoromethyl)pyridin-2-yl]piperazin-1-yl}carbonyl)phenyl]-1,3-dihydro-2H-isoindole-2-carboxamide], 0.0422 µM.
To `CCOCCNC(=O)c1ccc(NC(=O)N2Cc3ccccc3C2)cc1` [Example 142, N-{4-[(2-ethoxyethyl)carbamoyl]phenyl}-1,3-dihydro-2H-isoindole-2-carboxamide] belongs 0.0664 µM; to `O=C(Nc1ccc(-c2noc(C3CCOC3)n2)cc1)N1Cc2ccccc2C1` (centres unmarked) [Example 428, N-{4-[5-(tetrahydrofuran-3-yl)-1,2,4-oxadiazol-3-yl]phenyl}-1,3-dihydro-2H-isoindole-2-carboxamide], 0.0327 µM.
For `O=C(CCNC(=O)N1Cc2ccccc2C1)N1CCN(c2ccccn2)CC1` [Example 364, N-{3-oxo-3-[4-(pyridin-2-yl)piperazin-1-yl]propyl}-1,3-dihydro-2H-isoindole-2-carboxamide], the concentration for half-maximal inhibition (IC50) is 6.48 µM.
With `N#CCCN(C(=O)c1ccc(NC(=O)N2Cc3ccccc3C2)cc1)C1CC1` [Example 263, N-{4-[(2-cyanoethyl)(cyclopropyl)carbamoyl]phenyl}-1,3-dihydro-2H-isoindole-2-carboxamide], the IC50 stood at 1.66 µM.
As to `COCCN(C(=O)c1ccc(NC(=O)N2Cc3ccccc3C2)cc1)C(C)C` [Example 261, N-{4-[isopropyl(2-methoxyethyl)carbamoyl]phenyl}-1,3-dihydro-2H-isoindole-2-carboxamide], the IC50 was determined as 1.63 µM.
On to `O=C(Nc1ccc(C(=O)N2CCN(c3cccc(F)c3)CC2)cc1)N1Cc2ccccc2C1` [Example 76, N-(4-{[4-(3-fluorophenyl)piperazin-1-yl]carbonyl}phenyl)-1,3-dihydro-2H-isoindole-2-carboxamide], for which the IC50 amounted to 0.0278 µM.
To `O=C(Nc1ccc(N2CCN(C(=O)c3cccnn3)CC2)cc1)N1Cc2ccccc2C1` [Example 532, N-{4-[4-(pyridazin-3-ylcarbonyl)piperazin-1-yl]phenyl}-1,3-dihydro-2H-isoindole-2-carboxamide] belongs 0.488 µM; to `O=C(Nc1ccccc1)c1ccc(NC(=O)N2Cc3ccccc3C2)cc1` [Example 188, N-[4-(phenylcarbamoyl)phenyl]-1,3-dihydro-2H-isoindole-2-carboxamide], 0.148 µM.
In the case of `COc1cccc(NC(=O)c2ccc(NC(=O)N3Cc4ccccc4C3)cc2)c1OC` [Example 118, N-{4-[(2,3-dimethoxyphenyl)carbamoyl]phenyl}-1,3-dihydro-2H-isoindole-2-carboxamide], the IC50 was 0.0481 µM.
To `CC(C)C(=O)N1CCC(c2ccc(NC(=O)N3Cc4ccccc4C3)cc2)CC1` [Example 406, N-[4-(1-isobutyrylpiperidin-4-yl)phenyl]-1,3-dihydro-2H-isoindole-2-carboxamide] belongs 0.011 µM.
Regarding `CC(C)CCc1nc(-c2ccc(NC(=O)N3Cc4ccccc4C3)cc2)no1` [Example 408, N-{4-[5-(3-methylbutyl)-1,2,4-oxadiazol-3-yl]phenyl}-1,3-dihydro-2H-isoindole-2-carboxamide], the half-maximal inhibitory concentration (IC50) was 0.372 µM.
As to `CCCCN(CC)C(=O)c1ccc(NC(=O)N2Cc3ccccc3C2)cc1` [Example 242, N-{4-[butyl(ethyl)carbamoyl]phenyl}-1,3-dihydro-2H-isoindole-2-carboxamide], the IC50 was 0.524 µM.
Regarding `COc1cccc(CCNC(=O)c2ccc(NC(=O)N3Cc4ccccc4C3)cc2)c1OC` [Example 57, N-(4-{[2-(2,3-dimethoxyphenyl)ethyl]carbamoyl}phenyl)-1,3-dihydro-2H-isoindole-2-carboxamide], the IC50 was 0.0211 µM.
To `COCCN(C)C(=O)c1ccc(NC(=O)N2Cc3ccccc3C2)cc1` [Example 244, N-{4-[(2-methoxyethyl)(methyl)carbamoyl]phenyl}-1,3-dihydro-2H-isoindole-2-carboxamide] belongs 0.574 µM; to `CCN(CC)CCNC(=O)c1ccc(NC(=O)N2Cc3ccccc3C2)cc1` [Example 190, N-(4-{[2-(diethylamino)ethyl]carbamoyl}phenyl)-1,3-dihydro-2H-isoindole-2-carboxamide], 0.15 µM; to `O=C(NC[C@@H]1CCOC1)c1ccc(NC(=O)N2Cc3ccccc3C2)cc1` [Example 411, N-(4-{[(3S)-tetrahydrofuran-3-ylmethyl]carbamoyl}phenyl)-1,3-dihydro-2H-isoindole-2-carboxamide], 0.0197 µM.
`CCCCCCCCNC(=O)N1Cc2ccccc2C1` [Example 358, N-octyl-1,3-dihydro-2H-isoindole-2-carboxamide]: the IC50 worked out at 0.0711 µM.
In the case of `N#Cc1cccc(NC(=O)c2ccc(NC(=O)N3Cc4ccccc4C3)cc2)c1` [Example 116, N-{4-[(3-cyanophenyl)carbamoyl]phenyl}-1,3-dihydro-2H-isoindole-2-carboxamide] it was 0.0465 µM; in that of `O=C(NC1CCC1)c1ccc(NC(=O)N2Cc3ccccc3C2)cc1` [Example 232, N-[4-(cyclobutylcarbamoyl)phenyl]-1,3-dihydro-2H-isoindole-2-carboxamide], 0.42 µM.
Regarding `O=C(Nc1ccc(C(=O)N2CCN(c3cnccn3)CC2)cc1)N1Cc2ccccc2C1` [Example 51, N-(4-{[4-(pyrazin-2-yl)piperazin-1-yl]carbonyl}phenyl)-1,3-dihydro-2H-isoindole-2-carboxamide], the concentration for half-maximal inhibition (IC50) was determined as 0.0191 µM.
Turning to `O=C(Nc1ccc(-c2noc(Cc3ccccc3)n2)cc1)N1Cc2ccccc2C1` [Example 409, N-[4-(5-benzyl-1,2,4-oxadiazol-3-yl)phenyl]-1,3-dihydro-2H-isoindole-2-carboxamide], the half-maximal inhibitory concentration (IC50) was found to be 1.02 µM.
`Cc1cc(C(=O)N2CC=C(c3ccc(NC(=O)N4Cc5ccccc5C4)cc3)CC2)c(C)[nH]1` [Example 482, N-(4-{1-[(2,5-dimethyl-1H-pyrrol-3-yl)carbonyl]-1,2,3,6-tetrahydropyridin-4-yl}phenyl)-1,3-dihydro-2H-isoindole-2-carboxamide]: the IC50 stood at 0.00511 µM.
